Experimental data published in ChEMBL document CHEMBL4152384, “Pyrtriazoles, a Novel Class of Store-Operated Calcium Entry Modulators: Discovery, Biological Profiling, and in Vivo Proof-of-Concept Efficacy in Acute Pancreatitis” (J Med Chem, 2018).

Protein sequences, listed by entry. Tags and fused reporters are not part of them. Lines headed by an entry give the natural chain unless they say otherwise; changes in a name come on top.
UniProt P48995: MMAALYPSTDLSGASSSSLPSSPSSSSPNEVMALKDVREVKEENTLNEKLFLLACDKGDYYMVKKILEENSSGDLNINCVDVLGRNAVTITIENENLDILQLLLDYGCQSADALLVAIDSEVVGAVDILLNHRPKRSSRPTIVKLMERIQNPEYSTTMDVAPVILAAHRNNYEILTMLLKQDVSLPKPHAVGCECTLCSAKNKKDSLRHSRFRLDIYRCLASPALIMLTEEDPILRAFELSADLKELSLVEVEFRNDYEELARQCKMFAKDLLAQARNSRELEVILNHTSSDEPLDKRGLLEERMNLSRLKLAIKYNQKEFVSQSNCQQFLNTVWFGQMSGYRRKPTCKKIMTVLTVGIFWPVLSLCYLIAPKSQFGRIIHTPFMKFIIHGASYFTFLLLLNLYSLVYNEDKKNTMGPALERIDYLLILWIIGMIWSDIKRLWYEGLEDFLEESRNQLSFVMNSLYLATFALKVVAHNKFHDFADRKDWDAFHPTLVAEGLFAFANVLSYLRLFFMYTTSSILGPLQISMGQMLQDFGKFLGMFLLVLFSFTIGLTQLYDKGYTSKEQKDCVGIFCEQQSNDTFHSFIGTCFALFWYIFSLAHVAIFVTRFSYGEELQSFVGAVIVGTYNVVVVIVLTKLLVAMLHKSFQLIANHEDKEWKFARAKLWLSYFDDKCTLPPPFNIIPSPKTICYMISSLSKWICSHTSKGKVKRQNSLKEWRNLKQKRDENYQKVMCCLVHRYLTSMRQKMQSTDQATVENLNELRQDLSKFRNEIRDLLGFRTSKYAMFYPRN
UniProt Q13507: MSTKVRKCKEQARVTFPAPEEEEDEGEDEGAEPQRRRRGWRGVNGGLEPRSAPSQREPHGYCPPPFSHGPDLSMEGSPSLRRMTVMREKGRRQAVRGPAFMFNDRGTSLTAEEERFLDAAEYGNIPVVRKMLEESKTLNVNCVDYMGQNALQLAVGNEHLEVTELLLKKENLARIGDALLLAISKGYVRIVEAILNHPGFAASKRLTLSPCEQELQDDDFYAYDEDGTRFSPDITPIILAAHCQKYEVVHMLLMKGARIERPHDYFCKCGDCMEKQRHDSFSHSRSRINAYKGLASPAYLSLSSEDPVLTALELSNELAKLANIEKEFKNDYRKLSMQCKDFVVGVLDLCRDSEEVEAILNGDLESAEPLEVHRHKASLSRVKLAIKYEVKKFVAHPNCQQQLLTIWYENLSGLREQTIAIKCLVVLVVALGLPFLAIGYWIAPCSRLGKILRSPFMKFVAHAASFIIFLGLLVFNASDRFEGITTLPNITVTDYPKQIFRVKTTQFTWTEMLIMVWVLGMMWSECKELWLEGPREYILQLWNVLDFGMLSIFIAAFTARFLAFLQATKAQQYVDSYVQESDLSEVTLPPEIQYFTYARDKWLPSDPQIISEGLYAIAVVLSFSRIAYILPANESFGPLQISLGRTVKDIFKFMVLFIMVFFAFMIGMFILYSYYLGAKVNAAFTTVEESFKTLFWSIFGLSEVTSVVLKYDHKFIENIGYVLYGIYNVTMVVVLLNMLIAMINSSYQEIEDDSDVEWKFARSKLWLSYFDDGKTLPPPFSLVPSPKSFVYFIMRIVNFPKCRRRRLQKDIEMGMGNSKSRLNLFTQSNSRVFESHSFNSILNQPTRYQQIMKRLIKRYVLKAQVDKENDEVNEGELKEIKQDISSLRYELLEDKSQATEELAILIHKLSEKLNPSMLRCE
UniProt Q13586, whole entry: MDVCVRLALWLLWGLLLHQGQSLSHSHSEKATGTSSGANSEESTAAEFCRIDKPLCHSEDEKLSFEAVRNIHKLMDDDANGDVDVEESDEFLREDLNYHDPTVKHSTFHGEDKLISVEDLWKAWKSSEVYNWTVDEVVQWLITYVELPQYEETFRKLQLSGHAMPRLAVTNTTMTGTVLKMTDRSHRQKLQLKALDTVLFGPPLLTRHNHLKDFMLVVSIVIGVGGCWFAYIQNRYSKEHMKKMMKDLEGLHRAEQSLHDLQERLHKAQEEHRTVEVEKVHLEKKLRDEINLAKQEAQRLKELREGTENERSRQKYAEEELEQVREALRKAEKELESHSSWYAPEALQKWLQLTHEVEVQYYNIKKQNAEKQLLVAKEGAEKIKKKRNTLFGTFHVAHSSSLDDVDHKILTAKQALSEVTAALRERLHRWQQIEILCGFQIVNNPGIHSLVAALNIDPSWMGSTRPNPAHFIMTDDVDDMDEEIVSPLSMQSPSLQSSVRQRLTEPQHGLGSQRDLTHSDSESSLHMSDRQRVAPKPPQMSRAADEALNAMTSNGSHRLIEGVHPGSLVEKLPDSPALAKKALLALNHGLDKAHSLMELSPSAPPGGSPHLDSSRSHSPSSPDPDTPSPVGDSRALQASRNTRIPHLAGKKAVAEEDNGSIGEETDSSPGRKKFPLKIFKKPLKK
UniProt Q96D31, whole entry: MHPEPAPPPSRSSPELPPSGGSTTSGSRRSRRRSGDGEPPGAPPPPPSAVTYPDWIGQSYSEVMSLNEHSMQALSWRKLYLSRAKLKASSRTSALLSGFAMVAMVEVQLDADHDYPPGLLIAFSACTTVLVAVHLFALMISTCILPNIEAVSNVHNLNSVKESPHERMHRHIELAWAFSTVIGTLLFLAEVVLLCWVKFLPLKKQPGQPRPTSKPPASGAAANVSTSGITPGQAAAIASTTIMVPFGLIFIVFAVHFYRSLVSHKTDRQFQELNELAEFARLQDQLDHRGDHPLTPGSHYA
UniProt Q9P246, whole entry: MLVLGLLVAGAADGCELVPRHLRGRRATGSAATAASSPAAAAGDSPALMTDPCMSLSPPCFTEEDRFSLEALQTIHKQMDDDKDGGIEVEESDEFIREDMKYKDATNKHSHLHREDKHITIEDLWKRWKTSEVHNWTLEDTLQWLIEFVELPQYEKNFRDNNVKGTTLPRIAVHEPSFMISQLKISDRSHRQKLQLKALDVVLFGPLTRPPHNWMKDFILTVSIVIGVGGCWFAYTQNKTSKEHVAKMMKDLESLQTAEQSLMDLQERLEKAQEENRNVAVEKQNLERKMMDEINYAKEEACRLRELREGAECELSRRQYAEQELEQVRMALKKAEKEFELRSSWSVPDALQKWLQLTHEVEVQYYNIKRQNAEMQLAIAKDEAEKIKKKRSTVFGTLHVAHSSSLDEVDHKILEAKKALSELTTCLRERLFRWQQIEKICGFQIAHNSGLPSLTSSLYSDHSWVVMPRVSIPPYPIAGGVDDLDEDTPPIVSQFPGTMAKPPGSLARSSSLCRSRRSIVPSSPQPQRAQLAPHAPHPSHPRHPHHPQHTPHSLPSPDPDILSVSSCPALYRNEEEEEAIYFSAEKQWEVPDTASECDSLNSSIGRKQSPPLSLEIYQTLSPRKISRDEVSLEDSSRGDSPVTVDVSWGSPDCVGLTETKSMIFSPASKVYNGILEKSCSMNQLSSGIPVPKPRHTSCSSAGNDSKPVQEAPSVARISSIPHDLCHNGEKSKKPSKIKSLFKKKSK

Experiments:
[1] = molecular target: Short transient receptor potential channel 1 & 3/Stromal interaction molecule 1/Calcium release-activated calcium channel protein 1 (Homo sapiens, UniProt P48995+Q13507+Q13586+Q96D31); assay: Modulation of TRPC1/TRPC3/STIM1/Orai1 in HEK cells assessed as induction of store-operated calcium entry by measuring residual activity preincubated for 30 mins followed by tBhQ-mediated Ca2+ depletion and Ca2+ re-addition to extracellular solution measured for 600 secs by Fluo-4 AM-based fluorometric assay relative to control; type: cell-based
[2] = molecular target: Stromal interaction molecule 1 & 2/Calcium release-activated calcium channel protein 1 (Homo sapiens, UniProt Q13586+Q96D31+Q9P246); assay: Inhibition of STIM1/STIM2/Orai1 (unknown origin) expressed in mouse BV2 cells assessed as reduction of store-operated calcium entry at 100 uM preincubated for 30 mins followed by tBhQ, mediated Ca2+ depletion and re-addition measured for 600 secs by Fluo-4 AM-based fluorometric assay; type: cell-based

IC50 [1]: 500 nM
IC50 [2]: 2900 nM
SMILES: CCOC(=O)c1cnn(-c2ccc(NC(=O)C(Cl)=C(Cl)Cl)cc2)c1C(F)(F)F
